Measurements taken from paper PMC5933747 (PLoS ONE, 2018).

Chains of the proteins cited; added tags and fusions are not shown.
UniProt Q15858, whole entry: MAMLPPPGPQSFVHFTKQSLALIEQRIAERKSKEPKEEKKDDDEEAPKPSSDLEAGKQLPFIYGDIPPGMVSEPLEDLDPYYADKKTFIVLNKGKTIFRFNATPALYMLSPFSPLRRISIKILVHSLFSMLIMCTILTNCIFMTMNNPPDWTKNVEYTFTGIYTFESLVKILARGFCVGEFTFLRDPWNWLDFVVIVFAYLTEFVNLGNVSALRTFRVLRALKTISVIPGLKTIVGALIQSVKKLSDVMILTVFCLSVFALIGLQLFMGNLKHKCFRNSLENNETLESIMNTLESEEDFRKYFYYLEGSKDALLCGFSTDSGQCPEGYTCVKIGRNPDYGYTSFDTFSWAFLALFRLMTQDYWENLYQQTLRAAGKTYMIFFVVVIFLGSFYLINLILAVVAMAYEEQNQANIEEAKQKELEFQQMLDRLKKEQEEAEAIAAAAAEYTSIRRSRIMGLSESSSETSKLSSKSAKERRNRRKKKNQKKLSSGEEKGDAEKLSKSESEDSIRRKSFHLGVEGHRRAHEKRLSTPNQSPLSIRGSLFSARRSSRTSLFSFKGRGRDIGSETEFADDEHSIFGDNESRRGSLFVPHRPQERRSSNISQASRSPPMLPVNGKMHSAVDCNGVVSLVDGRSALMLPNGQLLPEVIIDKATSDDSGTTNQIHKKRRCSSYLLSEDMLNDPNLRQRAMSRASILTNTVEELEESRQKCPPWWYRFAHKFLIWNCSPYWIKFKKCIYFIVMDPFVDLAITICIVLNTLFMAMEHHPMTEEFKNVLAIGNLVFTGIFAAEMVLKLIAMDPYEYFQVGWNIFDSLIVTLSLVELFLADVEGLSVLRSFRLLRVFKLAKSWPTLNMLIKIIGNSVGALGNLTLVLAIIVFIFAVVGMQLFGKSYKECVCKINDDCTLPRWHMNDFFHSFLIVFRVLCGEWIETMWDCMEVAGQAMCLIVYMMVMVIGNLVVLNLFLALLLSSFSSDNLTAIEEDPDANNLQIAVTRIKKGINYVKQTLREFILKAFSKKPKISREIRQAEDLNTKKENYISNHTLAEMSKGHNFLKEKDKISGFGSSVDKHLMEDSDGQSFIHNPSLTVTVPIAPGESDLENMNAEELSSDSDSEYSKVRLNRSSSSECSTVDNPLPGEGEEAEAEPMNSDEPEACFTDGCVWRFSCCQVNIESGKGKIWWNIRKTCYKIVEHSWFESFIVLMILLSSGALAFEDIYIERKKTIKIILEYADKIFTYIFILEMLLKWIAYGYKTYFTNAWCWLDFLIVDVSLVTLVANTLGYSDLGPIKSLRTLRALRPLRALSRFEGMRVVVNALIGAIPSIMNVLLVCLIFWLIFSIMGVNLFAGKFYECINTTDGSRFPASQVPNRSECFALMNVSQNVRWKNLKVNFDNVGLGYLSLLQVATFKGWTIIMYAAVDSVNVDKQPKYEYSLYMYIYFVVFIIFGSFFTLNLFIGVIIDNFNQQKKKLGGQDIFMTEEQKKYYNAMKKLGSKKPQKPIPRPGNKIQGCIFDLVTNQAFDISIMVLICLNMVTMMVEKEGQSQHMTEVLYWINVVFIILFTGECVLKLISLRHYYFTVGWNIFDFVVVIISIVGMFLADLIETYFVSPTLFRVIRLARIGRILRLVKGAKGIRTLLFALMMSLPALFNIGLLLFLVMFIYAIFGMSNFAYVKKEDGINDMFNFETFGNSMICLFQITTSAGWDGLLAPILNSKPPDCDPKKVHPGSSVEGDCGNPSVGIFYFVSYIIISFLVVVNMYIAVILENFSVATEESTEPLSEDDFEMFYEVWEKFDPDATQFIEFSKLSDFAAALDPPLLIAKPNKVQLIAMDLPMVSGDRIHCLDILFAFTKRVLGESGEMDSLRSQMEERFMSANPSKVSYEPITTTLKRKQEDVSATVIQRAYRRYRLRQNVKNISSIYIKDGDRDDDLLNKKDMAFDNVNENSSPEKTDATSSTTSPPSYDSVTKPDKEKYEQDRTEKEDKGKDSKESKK

Molecular target: human NaV1.7 (Homo sapiens, UniProt Q15858)
Experiment: 125I-ProTx-II radioligand binding to live HEK293 cells stably expressing human NaV1.7
Conditions: 0.5 nM 125I-ProTx-II, 3 h, increasing concentrations of cold peptide

## ProTx-II
  competition for 125I-ProTx-II binding: competed
